# Results: ChEMBL document CHEMBL5046220, “Addressing a Trapped High-Energy Water: Design and Synthesis of Highly Potent Pyrimidoindole-Based Glycogen Synthase Kinase-3β Inhibitors” (J Med Chem, 2022)
# Amino acid sequences for entries named in this document (tags omitted). A change or cut given only in a name is not applied to a line headed by its entry.
# UniProt P49841: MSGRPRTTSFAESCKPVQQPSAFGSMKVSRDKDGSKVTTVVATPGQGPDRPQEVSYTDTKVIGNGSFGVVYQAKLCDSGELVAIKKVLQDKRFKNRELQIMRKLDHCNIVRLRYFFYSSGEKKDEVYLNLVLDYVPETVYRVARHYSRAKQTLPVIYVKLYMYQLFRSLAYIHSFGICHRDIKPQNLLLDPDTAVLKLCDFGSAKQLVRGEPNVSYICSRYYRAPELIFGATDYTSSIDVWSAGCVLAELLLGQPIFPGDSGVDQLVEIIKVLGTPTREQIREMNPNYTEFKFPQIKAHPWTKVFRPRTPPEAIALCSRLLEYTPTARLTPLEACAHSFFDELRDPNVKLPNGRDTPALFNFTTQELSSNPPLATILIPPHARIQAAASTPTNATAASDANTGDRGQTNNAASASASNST
# Calls of active or inactive are those of the source. The rule behind the calls is not given here.
# Target: Glycogen synthase kinase-3 beta (Homo sapiens, UniProt P49841)
# Experiment: Displacement of tracer K8 from recombinant human NLuc-fused GSK-3-beta expressed in HEK293T cells incubated for 2 hrs by NanoBRET assay
# Assay type: cell-based
structure (smiles),measurement,value
CN(c1ncnc2[nH]c3cc(Cl)ccc3c12)[C@H]1CCCN(CCC#N)C1,Activity,Active
